According to patent US6748954B2, “Drug release from polymer matrices through mechanical stimulation” (The Regents of The University of Michigan, priority 2000, dated 2004):

VEGF
dependence of VEGF release rate on magnitude of mechanical stimulation (10% versus 25% strain amplitude): directly related to the magnitude of the mechanical stimulation
release rate of VEGF from non-compressed hydrogel disks (control, non-compressed disks (B'), same time course): fairly constant release rate
rate of release of VEGF from compressed hydrogel disks (six compression/relaxation cycles, 10% (A') or 25% (C') strain amplitude): significantly affected by mechanical stimulation
